Reference: PubChem BioAssay AID624171 (National Center for Advancing Translational Sciences (NCATS), 2012)
The list shows a part of the results, in another mix than the full data. Activity calls are given as the source filed them. Calls follow the shape of the dose curve; as a rule, active = well fitted activation curve with a large enough effect; inconclusive = small, poorly fitted or top-dose-only effect; inactive = flat fitted curve, though single readings scatter.

experiment: qHTS of Nrf2 Activators; conditions: AREc32 ARE-luciferase reporter (MCF7-derived line), luminescence, 24 h; at 46.1 µM (top of the series); also: % of control where 0% means no effect; nearly all actives have a fitted effect of over 65% in size
Source text: Many diseases have some form of oxidative stress injury and ties to inflammation, causing a host of problems for the patient. The antioxidant response element (ARE) plays an important role in alleviating the harmful effects of oxidative stress. The antioxidant response element (ARE) is a transcriptional regulatory element involved in the activation of genes coding for a number of antioxidant proteins and detoxifying enzymes. These enzymes work in concert to protect tissues from oxidative insults and chemical toxicities in human hepatocytes and immune cells. The protective effects of ARE activation are primarily triggered through Nrf2 (NF-E2-related factor) binding to and activating AREs. It is known that Nrf2 controls the production of over 250 antioxidant and detoxification proteins (Hu et al., 2006), thereby protecting tissues by increasing cellular antioxidant content and suppressing inflammatory signaling pathways. The transcription factor Nrf2 is a central link between oxidative chemicals, such as phenolic antioxidants and electrophilic compounds, and the activation of ARE. […]
5 uL of 1000 cells/well of AREc32_Fluc cells are seeded into 1536-well plate in OPTI-MEM medium with 5% FBS. […] After the addition of 2.5 uL of Steady-Glo. the plates are kept at RT for 30 min, before they are read on the ViewLux.

Structure (SMILES) | activation
CCC(=O)N(c1ccccc1)C1(COC)CCN(CCn2nnn(CC)c2=O)CC1 | inactive: 0.764%
CCC(=O)N(c1ccccc1)C1(COC)CCN(CCc2cccs2)CC1 | inactive: -1.02%
